The values below are quoted from earlier work in paper PMC11965407 (Translational Psychiatry, 2025).

This data set deals with serotonin reuptake. The note with it: oral administration, rats; cited from earlier work.

Where a name gives a salt, the structure may show the parent alone.

Regarding `Fc1ccc([C@@H]2CCNC[C@H]2COc2ccc3c(c2)OCO3)cc1` [paroxetine, paroxetine hydrochloride], the “ED50, inhibition of serotonin reuptake” value is given as 1.9 mg/kg.
